Earlier results, collected in patent US20230085549A1 (Janssen Pharmaceutica NV, priority 2021, published 2023).

Test system: pregnant women
Settings: 1566 women exposed in first trimester, cited from earlier work

Cc1nc2n(c(=O)c1CCN1CCC(c3noc4cc(F)ccc34)CC1)CCCC2 [risperidone]
risk of cardiac malformations (RR) (95% CI 0.88-1.81): 1.26
risk of major birth defects (RR) (95% CI 1.02-1.56): 1.26
